Target: human FSH receptor (human) (UniProt P23945)
Test: cell-based or functional assay

Sequences of proteins named here, by UniProt entry; tags and fusion partners are left off. Residues count along the entry.
UniProt P23945, 18-695: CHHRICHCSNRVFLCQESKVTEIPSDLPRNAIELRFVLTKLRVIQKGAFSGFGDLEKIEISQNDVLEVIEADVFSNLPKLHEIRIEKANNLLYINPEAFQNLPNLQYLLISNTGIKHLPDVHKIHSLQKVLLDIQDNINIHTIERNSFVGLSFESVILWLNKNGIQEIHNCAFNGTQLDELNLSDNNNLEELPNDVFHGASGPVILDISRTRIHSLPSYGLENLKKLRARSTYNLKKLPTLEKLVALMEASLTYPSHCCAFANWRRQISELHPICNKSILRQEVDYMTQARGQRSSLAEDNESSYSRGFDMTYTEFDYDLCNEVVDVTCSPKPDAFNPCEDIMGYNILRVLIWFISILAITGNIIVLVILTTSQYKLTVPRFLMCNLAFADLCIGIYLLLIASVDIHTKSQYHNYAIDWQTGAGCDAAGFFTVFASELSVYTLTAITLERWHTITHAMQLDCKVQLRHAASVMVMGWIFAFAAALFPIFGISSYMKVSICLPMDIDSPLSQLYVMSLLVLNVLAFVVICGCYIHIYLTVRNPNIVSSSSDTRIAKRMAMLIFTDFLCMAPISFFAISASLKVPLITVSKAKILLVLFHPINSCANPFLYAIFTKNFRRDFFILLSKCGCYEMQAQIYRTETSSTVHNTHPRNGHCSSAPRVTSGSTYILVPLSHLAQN

- 50% effective concentration (EC50) of cAMP production in CHO-FSHR cells: 0.104 nM
Substance: Gonal-F (from UniProt P01215 25-116; P01225 19-129) (ligand)
